Molecular target: CB1 (Homo sapiens, UniProt P21554)
Test: Radioligand displacement of [3H]CP55940 at CB1
Settings: ratio of Ki CB2 to Ki CB1, [3H]CP55940

Protein sequences, listed by entry. Tags and fused reporters are not part of them.
UniProt P21554, whole entry: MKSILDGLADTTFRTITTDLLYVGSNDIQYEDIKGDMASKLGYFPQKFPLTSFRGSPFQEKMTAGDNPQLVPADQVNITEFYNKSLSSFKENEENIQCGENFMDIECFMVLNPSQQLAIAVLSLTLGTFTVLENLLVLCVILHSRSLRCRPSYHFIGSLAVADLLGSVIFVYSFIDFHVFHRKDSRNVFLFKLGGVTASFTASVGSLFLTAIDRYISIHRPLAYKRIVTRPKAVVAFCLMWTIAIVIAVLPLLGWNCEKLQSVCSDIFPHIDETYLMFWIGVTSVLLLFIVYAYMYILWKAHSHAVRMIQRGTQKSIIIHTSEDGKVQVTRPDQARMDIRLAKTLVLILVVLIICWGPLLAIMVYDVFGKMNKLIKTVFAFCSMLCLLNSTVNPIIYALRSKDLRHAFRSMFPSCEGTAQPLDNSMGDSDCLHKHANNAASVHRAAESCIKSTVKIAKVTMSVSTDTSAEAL

With `Cc1c(C(=O)NCC2CCC(CNS(N)(=O)=O)CC2)nn(-c2ccc(Cl)cc2Cl)c1-c1ccc(Cl)cc1` (stereo not shown) [Compound 8] the “CB2:CB1 ratio” value was 17.

Source: article PMC3319116 (Journal of Medicinal Chemistry, 2012)
